Measurements published in PubChem BioAssay (Tox21).
Several values for one entry are separate records, joined by “and”; a condition that tells them apart may be missing. Equal entries are not always repeated. Only a part is listed here, and it is no random draw. Records with an inconclusive call do not appear. Activity calls are given as the source filed them. Calls follow the shape of the dose curve; as a rule, active = well fitted cell-killing curve with a large enough effect in the repeat runs; inconclusive = weak or mixed curves, or effect the other way; inactive = flat fitted curve, though single readings scatter.
% is scaled to controls: 0 for no effect and ±100 for the full control effect.

Assay: qHTS assay to identify small molecule agonists of the androgen receptor (AR) signaling pathway in the presence of an antagonist - cell viability counter screen (AID 1259379); also: nearly all actives have a fitted effect of over 25% in size
Details: MDA-kb2 viability, CellTiter-Fluor, 16 h; at 42.5 µM (top of the series)
Source text: National Center for Advancing Translational Sciences [NCATS]
NIH Chemical Genomics Center [NCGC]
U.S. Environmental Protection Agency [EPA]
National Institutes of Environmental Health Sciences [NIEHS]
National Toxicology Program [NTP]
U.S. Food and Drug Administration [FDA]
Androgen receptor (AR) is an important member of nuclear receptor family. Its signaling plays a critical role in AR-dependent prostate cancer and other androgen related diseases. Considerable attention has been given in the past decades to develop methods to study and screen for the environmental chemicals that have the potential to interfere with metabolic homeostasis, reproduction, developmental and behavioral functions. Therefore AR binding assay for screening against androgen agonists and antagonists can be used to identify potential endocrine disruptors.
MDA-kb2 cells (from ATCC, deposited by Wilson et al.) are human breast carcinoma cells that were stably transfected with a luciferase reporter gene under control of the MMTV promoter that contains response elements for both androgen receptor (AR) and glucocorticoid receptor (GR). This particular screening for measuring luciferase reporter gene activity using MDA-kb2 cells against Tox21 10K library compounds is a confirmation study on agonist mode screening in the presence of AR-antagonist compound (Nilutamide) at 3.0uM final concentration. The cytotoxicity of the compounds was tested in parallel by measuring the cell viability using CellTiter-Fluor assay system (Promega, Madison, WI) in the same wells.
Tox21 Assay Protocol Summary:
MDA-kb2 cells (cells cultured without CO2) were dispensed at 3,000 cells/well in 4uL of culture medium into white wall/solid-bottom 1536-well plates (Corning Life Sciences, Corning, NY) using a Multidrop Combi (Thermo Fisher Scientific Inc., Waltham, MA) dispenser. The assay plates were incubated at 37C and 0% CO2 for 5hr. One uL of 3.0uM (final concentration) Nilutamide or assay buffer was added using two separate tips of Flying Reagent Dispenser (FRD, Aurora Discovery, San Diego, CA). Then 23nL of compounds dissolved in DMSO at 15 concentrations and positive controls were transferred to the assay plates using a Pintool station (Wako, San Diego, CA). The assay plates were incubated at 37C and 0% CO2 for 16 hr. After 15hr incubation at 37C, 1uL/well CellTiter-Fluor reagent (Promega Corporation) was added to each well of the assay plates using FRD. After 1hr incubation at 37C and 0% CO2, the fluorescence signal was measured using a ViewLux plate reader (PerkinElmer, Shelton, CT).
With OCCSCCO the activity change, negative = cytotoxicity was inactive: 0.799%.
In the case of Cc1cccc([N+](=O)[O-])c1[N+](=O)[O-], the activity change, negative = cytotoxicity is reported as inactive: -6.21%.

Same assay, conditions: MDA-kb2 viability, CellTiter-Fluor, 16 h; at 92.4 µM (top of the series)
For CC(C)N(CCO)C(C)C, the activity change, negative = cytotoxicity was inactive: 0.0662%.
With COP(C)(=O)OC the activity change, negative = cytotoxicity was inactive: 1.12% and inactive: 3.4%.
For COc1ccc([N+](=O)[O-])cc1[N+](=O)[O-], the activity change, negative = cytotoxicity was inactive: -0.481%.
In the case of N=C(N)N[N+](=O)[O-], the activity change, negative = cytotoxicity is reported as inactive: -1.44%.
In the case of O=[N+]([O-])[O-].[NH4+], the activity change, negative = cytotoxicity is reported as inactive: 2.74% and inactive: 0.872%.
In the case of O=[N+]([O-])c1cccc([N+](=O)[O-])c1, the activity change, negative = cytotoxicity is reported as inactive: -0.933%.
For CCN(CC)CCCl, the activity change, negative = cytotoxicity was inactive: -0.314%.
For N#CBr, the activity change, negative = cytotoxicity was inactive: 2.17%.
In the case of Cc1ccc([N+](=O)[O-])cc1[N+](=O)[O-], the activity change, negative = cytotoxicity is reported as inactive: 0.309% and inactive: 5.55%.
For OCCSCCO, the activity change, negative = cytotoxicity was inactive: 0.646%.
With CP(=O)(O)OCCC[Si](O)(O)O the activity change, negative = cytotoxicity was inactive: 2.07%.
In the case of CCOP(=O)(CC)OCC, the activity change, negative = cytotoxicity is reported as inactive: 0.478%.
With [NH4+].[O-][Cl+3]([O-])([O-])[O-] the activity change, negative = cytotoxicity was inactive: 0.259% and inactive: -0.439%.
For CC(C)OP(C)(=O)OC(C)C, the activity change, negative = cytotoxicity was inactive: 1.28%.
In the case of Cc1c([N+](=O)[O-])cccc1[N+](=O)[O-], the activity change, negative = cytotoxicity is reported as inactive: -0.14% and inactive: 0.628%.
With O=[N+]([O-])OCC(CO[N+](=O)[O-])(CO[N+](=O)[O-])CO[N+](=O)[O-] the activity change, negative = cytotoxicity was inactive: -1.7%.
For CN(C)CCCl, the activity change, negative = cytotoxicity was inactive: -1.58%.
